Molecular target: β5c of hu c-20S (Homo sapiens (Human), UniProt P20618+P28074)
Experiment: IC50 determination against β5c of human constitutive proteasome (suc-LLVY-AMC hydrolysis);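 further: IC50 obtained by fitting initial reaction velocities to a dose-dependent inhibition model, with SDS present as proteasome activator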
Assay type: biochemical
Conditions: read-out: IC50 (μM) hu c-20S, 0.2 nM c-20S, 25 μM suc-LLVY-AMC

SMILES	IC50
CCC(=O)N[C@H]1Cc2cccc(c2)Oc2cccc(c2)C[C@@H](c2nc3ccccc3[nH]2)NC(=O)[C@H](CCc2ccccc2)NC1=O	4.85 µM
CCC(=O)N[C@H]1Cc2cccc(c2)Oc2cccc(c2)C[C@@H](c2nc3cccc(F)c3[nH]2)NC(=O)[C@H](CCc2ccccc2)NC1=O	6.08 µM
